These are literature values, as cited in patent publication US20250289804A1, “SUBSTITUTED INDOLE COMPOUNDS AND METHODS OF USE THEREOF” (NOVARTIS PHARMA AG, priority 2021, published 2025).

For this data set, the system named is C3G patients. The note with it: cited from earlier work.

B1: Eculizumab (antibody, chains of the INN, looked up)
heavy: QVQLVQSGAEVKKPGASVKVSCKASGYIFSNYWIQWVRQAPGQGLEWMGEILPGSGSTEYTENFKDRVTMTRDTSTSTVYMELSSLRSEDTAVYYCARYFFGSSPNWYFDVWGQGTLVTVSSASTKGPSVFPLAPCSRSTSESTAALGCLVKDYFPEPVTVSWNSGALTSGVHTFPAVLQSSGLYSLSSVVTVPSSNFGTQTYTCNVDHKPSNTKVDKTVERKCCVECPPCPAPPVAGPSVFLFPPKPKDTLMISRTPEVTCVVVDVSQEDPEVQFNWYVDGVEVHNAKTKPREEQFNSTYRVVSVLTVLHQDWLNGKEYKCKVSNKGLPSSIEKTISKAKGQPREPQVYTLPPSQEEMTKNQVSLTCLVKGFYPSDIAVEWESNGQPENNYKTTPPVLDSDGSFFLYSRLTVDKSRWQEGNVFSCSVMHEALHNHYTQKSLSLSLG
light: DIQMTQSPSSLSASVGDRVTITCGASENIYGALNWYQQKPGKAPKLLIYGATNLADGVPSRFSGSGSGTDFTLTISSLQPEDFATYYCQNVLNTPLTFGQGTKVEIKRTVAAPSVFIFPPSDEQLKSGTASVVCLLNNFYPREAKVQWKVDNALQSGNSQESVTEQDSKDSTYSLSSTLTLSKADYEKHKVYACEVTHQGLSSPVTKSFNRGEC
notes: "a C5 monoclonal antibody that has been approved for treatment of aHUS"
Turning to B1, the improvement of disease result was “only a subset of patients who had higher level of C5b-9 (MAC) showed improvement of disease”.
